# Measurements as given in PubChem BioAssay AID504652 (National Center for Advancing Translational Sciences (NCATS), 2011).
# Protein sequences, listed by entry. Tags and fused reporters are not part of them.
# UniProt P21728, whole entry: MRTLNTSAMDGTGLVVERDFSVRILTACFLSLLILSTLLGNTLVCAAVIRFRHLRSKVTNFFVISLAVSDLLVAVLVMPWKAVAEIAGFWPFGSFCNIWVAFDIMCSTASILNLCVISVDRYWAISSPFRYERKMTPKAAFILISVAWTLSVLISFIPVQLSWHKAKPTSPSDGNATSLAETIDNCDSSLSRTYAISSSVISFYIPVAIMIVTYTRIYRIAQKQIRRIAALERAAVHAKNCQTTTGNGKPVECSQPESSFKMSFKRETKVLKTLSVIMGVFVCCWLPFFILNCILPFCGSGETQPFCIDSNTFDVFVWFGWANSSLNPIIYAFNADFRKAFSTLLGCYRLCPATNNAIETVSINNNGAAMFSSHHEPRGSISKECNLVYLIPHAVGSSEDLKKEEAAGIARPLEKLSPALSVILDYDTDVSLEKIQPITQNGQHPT
# The entries are a selection whose mix differs from that of the whole data set. Some salts and complexes are drawn in separate pieces, as the source files them; their charges need not balance. Calls of active or inactive are those of the source. Cut-off read from the data, not from the text of the source: active = activity change below about -30%; inactive = the rest.
# Target: D(1A) dopamine receptor (Homo sapiens) (UniProt P21728)
# Experiment: Antagonist of Human D 1 Dopamine Receptor: qHTS
# Settings: HEK293 TREx D1 cells, calcium flux, dopamine EC80; at 10 µM; hits give low values
# Source text: Dopamine receptors (DARs) are involved in the etiology and/or therapy of a number of neuropsychiatric and endocrine disorders. For instance, all receptor-based antiparkinsonian drugs work via stimulating the […] DAR subtype whereas all FDA-approved antipsychotic agents are antagonists of this receptor. […] There are three different types of allosteric modulators that we are seeking, two of which will stimulate or augment receptor signaling, allosteric agonists and potentiators, while the third, allosteric antagonists, will attenuate receptor signaling. The present primary screening assay measures compound antagonism after an EC80 addition of dopamine by tracking calcium flux in a […], inducible Hek293 Trex D1 cell line. NIH Chemical Genomics Center [NCGC] NIH Molecular Libraries Probe Centers Network [MLPCN] MLPCN Grant: NS064831-01 Assay Submitter (PI): David Sibley
# Freshly passaged cells are plated in 1536 well black, clear bottom plates at a density of 4000 cells/well in 3 ul of complete media containing 1x tetracycline inducer. After an overnight incubation at 30 C in 5% CO2, cells are loaded with 2 ul of the no wash Calcium Assay Kit (ABD Bioquest) and incubated at room temperature for 30 to 90 minutes. Agonist read: A 10 cycle (1 second/cycle) baseline measurement is taken and then the FDSS online 1536 pintool delivers 23 nl of compound library (as well as dopamine controls) to the plate. The plate is measured for kinetically at 1 cycle/sec for 180 seconds. Following the 180 second read, 1 ul of an EC80 (negative modulation assay) is delivered by an onboard pipette head. Measurements are taken kinetically for an additional 180 seconds.
# % is set by controls: 0 for no effect and ±100 for the full control effect.
row,Structure (SMILES),"activity change, negative = inhibition"
1,O=C(NCC1(N2CCCCC2)CCCCC1)c1cccc(C(F)(F)F)c1,inactive: 15.8%
2,CCCOc1cccc(C(=O)NCC2(N3CCOCC3)CCCCC2)c1,inactive: 1.47%
3,O=[N+]([O-])c1cc([N+](=O)[O-])c(NCC2CCS(=O)(=O)C2)c([N+](=O)[O-])c1 (stereo not drawn),inactive: -11.8%
4,CC(C)c1ccc(C(=O)NCC2(N3CCOCC3)CCCCC2)cc1,inactive: -3.56%
5,COc1ccc(NC2CCN(C(=O)OC(C)(C)C)CC2)cc1,inactive: -17.8%
6,CN1CCN(CCOC(=O)C(O)(c2ccccc2)c2ccccc2)CC1,inactive: -5.51%
7,O=C(NCC1(N2CCOCC2)CCCCC1)c1cc(=O)[nH]c2ccccc12,inactive: 1.17%
8,COc1cc(C(=O)NCC2(N3CCCCC3)CCCCC2)ccc1OC(F)F,inactive: 8.76%
9,O=C(NCC1(N2CCCCC2)CCCCC1)c1ccc(OC(F)F)cc1,inactive: -5.46%
10,CSc1ccc(C(=O)NCC2(N3CCOCC3)CCCCC2)cc1,inactive: -0.663%
11,CCOc1ccc(C(=O)NCC2(N3CCOCC3)CCCCC2)cc1,inactive: 2.79%
12,O=C(NCC1(N2CCCCC2)CCCCC1)c1cccc([N+](=O)[O-])c1,inactive: -10.1%
13,CCN1CCC(Nc2ccc(Cl)cc2)CC1,inactive: -2.93%
14,N#CC1(Nc2ccccc2)CCN(CCc2ccccc2)CC1,inactive: 6.71%
15,COc1ccc2c(c1O)-c1c(O)c(OC)cc3c1[C@H](C2)[N+](C)(C)CC3.O=[N+]([O-])c1cc([N+](=O)[O-])c([O-])c([N+](=O)[O-])c1[O-],inactive: -2.65%
16,O=C(NCC1(N2CCCCC2)CCCCC1)c1cncc(Br)c1,inactive: 6.16%
17,O=C(OC1CN2CCC1CC2)c1ccc([N+](=O)[O-])cc1 (stereo not drawn),inactive: -10.9%
18,CCCCOc1ccccc1C(=O)NCC1(N2CCOCC2)CCCCC1,inactive: 18.7%
19,O=C(NCC1(N2CCOCC2)CCCCC1)c1ccccc1Br,inactive: -8.87%
20,CCCOc1ccc(C(=O)NCC2(N(C)C)CCCCC2)cc1OC,inactive: 18.3%
21,COc1ccc(CN(CCCl)CCCl)cc1Cl,inactive: -5.09%

row,Structure (SMILES),"activity change, negative = inhibition"
1,CN(C)c1cccc(C(=O)NCC2(N3CCCCC3)CCCCC2)c1,inactive: -4.38%
2,O=[N+]([O-])c1cc([N+](=O)[O-])c(OC2CCCCC2O)c([N+](=O)[O-])c1 (stereo not drawn),inactive: -18.3%
3,CC(C)c1ccc(NC2CCN(C(=O)OC(C)(C)C)CC2)cc1,inactive: 1.32%
4,COc1cc(OC)c(C(=O)NCC2(N(C)C)CCCCC2)cc1OC,inactive: 1.2%
5,O=C(NCC1(N2CCOCC2)CCCCC1)c1cc2ccccc2o1,inactive: 11%
6,O=C(NCC1(N2CCCCC2)CCCCC1)c1ccc(Cl)nc1,inactive: -17.9%
7,Cc1cc(C)cc(N(C(=O)c2ccccc2)C2CCN(C(=O)OC(C)(C)C)CC2)c1,inactive: 8.94%
8,CCOC(=O)N1CCC(Nc2ccc(OC)cc2)CC1,inactive: 28.5%
9,N#CC1(Nc2ccccc2)CCN(Cc2ccccc2)CC1,inactive: 6.02%
10,O=C(NCC1(N2CCCCC2)CCCCC1)c1ccc(Cl)s1,inactive: 48.8%
11,O=C(OC1CN2CCC1CC2)C1c2ccccc2Oc2ccccc21 (stereo not drawn),inactive: 4.53%
12,COc1ccc(Cl)cc1C(=O)NCC1(N2CCOCC2)CCCCC1,inactive: 12.7%
13,O=C(NCC1(N2CCCCC2)CCCCC1)c1ccc(=O)[nH]c1,inactive: 11.7%
14,O=C(NCC1(N2CCCCC2)CCCCC1)c1cccs1,inactive: -1.62%
15,COc1ccc(C(=O)NCC2(N3CCCCC3)CCCCC2)cc1,inactive: -0.571%
16,CC(C)(C)OC(=O)N1CCC(N(C(=O)c2ccccc2)c2ccc(F)cc2)CC1,inactive: -17.5%
17,CSc1ccccc1C(=O)NCC1(N2CCCCC2)CCCCC1,inactive: 18.8%
18,CCOC(=O)N1CCC(Nc2cccc(C)c2)CC1,inactive: -12.7%
19,COc1cc(C(=O)NCC2(N(C)C)CCCCC2)ccc1OC(F)F,inactive: -3.98%
20,Cc1ccc(OCC(C)C)c(CN(CCCl)CCCl)c1,inactive: 2.28%
21,CCOc1ccc(C)cc1CN(CCCl)CCCl,inactive: 0.285%

row,Structure (SMILES),"activity change, negative = inhibition"
1,O=C(NCC1(N2CCOCC2)CCCCC1)c1ccc(Cl)cc1,inactive: -25.2%
2,CCCCOc1ccc(C(=O)NCC2(N3CCOCC3)CCCCC2)cc1,inactive: 8.34%
3,O=C(NCC1(N2CCCCC2)CCCCC1)c1ccc(F)cc1,inactive: 7.84%
4,CCOC(=O)N1CCC(Nc2ccc(F)cc2)CC1,inactive: -2.92%
5,COc1ccc(NC2CCN(CCc3ccccc3)CC2)c(OC)c1,inactive: -7.25%
6,COc1ccccc1C(=O)NCC1(N2CCOCC2)CCCCC1,inactive: 5.8%
7,CCN1CCC(Nc2cccc(F)c2)CC1,inactive: 6%
8,O=C(NCC1(N2CCCCC2)CCCCC1)c1ccco1,inactive: 29.2%
9,CC(C)(C)c1ccc(C(=O)NCC2(N3CCOCC3)CCCCC2)cc1,inactive: 3.56%
10,CN(C)c1ccc(C(=O)NCC2(N3CCCCC3)CCCCC2)cc1,inactive: 0.341%
11,Cc1ccccc1C(=O)NCC1(N(C)C)CCCCC1,inactive: 8%
12,COc1cc(OC)cc(C(=O)NCC2(N3CCCCC3)CCCCC2)c1,inactive: 3.04%
13,CN(C)C1(CNC(=O)c2ccc(C(C)(C)C)cc2)CCCCC1,inactive: 15.1%
14,Cc1ccc(C(=O)NCC2(N3CCCCC3)CCCCC2)o1,inactive: 9.99%
15,CCC(CO)(C(=O)OC1CN2CCC1CC2)c1ccccc1 (stereo not drawn),inactive: 12.7%
16,COc1cccc(C(=O)N(c2cc(C)cc(C)c2)C2CCN(C(=O)OC(C)(C)C)CC2)c1,inactive: -1.18%
17,COc1cc(OC)cc(C(=O)NCC2(N3CCOCC3)CCCCC2)c1,inactive: 0.409%
18,COc1cc(C(=O)NCC2(N3CCOCC3)CCCCC2)cc(OC)c1OC,inactive: 0.865%
19,CCCOc1ccc(C)cc1CN(CCCl)CCCl,inactive: -7.56%
20,CN1CCC(Nc2ccc(Cl)cc2)CC1,inactive: 7.69%
21,CCOc1ncccc1C(=O)NCC1(N2CCOCC2)CCCCC1,inactive: 4.5%

row,Structure (SMILES),"activity change, negative = inhibition"
1,CN1CCC(Nc2ccc(F)c(Cl)c2)CC1,inactive: 5.99%
2,CCCOc1ccc(C(=O)NCC2(N(C)C)CCCCC2)cc1,inactive: 13.1%
3,CC(C)(C)OC(=O)N1CCC(Nc2ccccc2)CC1,inactive: -13.3%
4,O=C(O)C1(Nc2ccccc2)CCN(Cc2ccccc2)CC1,inactive: 8.29%
5,N/C(=N\O)c1c(N)no[n+]1[O-],inactive: 1.75%
6,CCOC(=O)N1CCC(Nc2ccc(C)cc2)CC1,inactive: -3.53%
7,CCc1cc(C(=O)NCC2(N3CCCCC3)CCCCC2)sc1C,inactive: -5.62%
8,O=C(OC1CN2CCC1CC2)C1c2ccccc2C=Cc2ccccc21 (stereo not drawn),inactive: -8.55%
9,O=C(O)c1cccc(Nc2c([N+](=O)[O-])cc([N+](=O)[O-])cc2[N+](=O)[O-])c1,inactive: 14.9%
10,O=C(NCC1(N2CCOCC2)CCCCC1)c1cc(Br)ccc1Cl,inactive: 10.4%
11,COc1ccc(C(=O)NCC2(N3CCOCC3)CCCCC2)cc1OC,inactive: -5.55%
12,c1ccc(CN2CCC(Nc3ccccc3)CC2)cc1,inactive: -3.59%
13,O=C(NCC1(N2CCOCC2)CCCCC1)c1ccccc1,inactive: 4.22%
14,CCCN1CCC(Nc2cc(OC)cc(OC)c2)CC1,inactive: -0.601%
15,CN(C)C1(CNC(=O)c2cccc(C#N)c2)CCCCC1,inactive: -3.43%
16,O=C(NCC1(N2CCOCC2)CCCCC1)c1ccc([N+](=O)[O-])cc1,inactive: 7.88%
17,CC(C)(C)OC(=O)N1CCC(N(C(=O)c2ccccc2)c2ccc(Cl)cc2)CC1,inactive: -10.1%
18,O=C(NCC1(N2CCOCC2)CCCCC1)c1ccccc1[N+](=O)[O-],inactive: -10.5%
19,N#Cc1ccc(C(=O)NCC2(N3CCCCC3)CCCCC2)cc1,inactive: -25.3%
20,CCOC(=O)C(CC)C1=NC(C)(C)Cc2ccccc21.O=[N+]([O-])c1cc([N+](=O)[O-])c(O)c([N+](=O)[O-])c1 (stereo not drawn),inactive: 2.45%
